By UniProt entry, the sequences of proteins in these tests, tags left out.
UniProt P08908, whole entry: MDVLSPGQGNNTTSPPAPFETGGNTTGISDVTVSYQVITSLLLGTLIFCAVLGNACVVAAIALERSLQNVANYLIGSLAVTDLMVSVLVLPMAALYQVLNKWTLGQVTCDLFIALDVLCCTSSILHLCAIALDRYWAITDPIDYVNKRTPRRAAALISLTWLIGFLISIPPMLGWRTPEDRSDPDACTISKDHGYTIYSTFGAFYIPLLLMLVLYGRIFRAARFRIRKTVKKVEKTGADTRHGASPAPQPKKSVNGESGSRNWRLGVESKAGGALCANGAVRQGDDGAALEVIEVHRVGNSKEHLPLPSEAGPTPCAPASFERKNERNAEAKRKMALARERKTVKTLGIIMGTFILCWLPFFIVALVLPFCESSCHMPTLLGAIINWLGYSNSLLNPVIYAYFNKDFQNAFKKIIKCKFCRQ

In ChEMBL document CHEMBL1155229, “Physical binding pocket induction for affinity prediction” (J Med Chem, 2009):

Target: 5-hydroxytryptamine receptor 1A (Homo sapiens, UniProt P08908)
Experiment: Binding affinity to 5HT1A receptor

| Structure (SMILES) | Kd [nM] |
| --- | --- |
| CCCN1CC[C@H]2c3c(O)cccc3CC[C@H]21 | 0.1 |
| CCCN1CC[C@@H]2c3c(O)cccc3CC[C@@H]21 | 3.16 |
